{
  "source": "PubChem BioAssay AID1845",
  "about": "(The Scripps Research Institute Molecular Screening Center, 2009)",
  "note": "The list shows a part of the results, in another mix than the full data. Some tests of the compounds listed are not included; inactive here does not mean inactive elsewhere. The source made the active and inactive calls. Rule as the data show it: active = inhibition above about 37%; inactive = the rest.",
  "data": [
    {"experiment": "compounds displacing fluorescent DNA intercalator, primary screen, artefact control for HCV NS3 helicase inhibitor project, biochemical, FID fluorescence (AID 1845);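 also: 0% = vehicle and 100% = reference compound; higher means more ethidium bromide displaced from hairpin DNA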", "settings": "DNA fluorescent intercalator displacement, at 7.9 µM, active compounds read high", "values": [
      {"smiles": "COc1cccc(C(=O)NCC2(N3CCCCC3)CCCCC2)c1", "inhibition": "inactive: 4.92%"},
      {"smiles": "COc1ccc(Cl)cc1C(=O)NCC1(N(C)C)CCCCC1", "inhibition": "inactive: 1.15%"},
      {"smiles": "O=C(NCC1(N2CCCCC2)CCCCC1)c1cccc(Cl)c1", "inhibition": "inactive: 1.07%"},
      {"smiles": "CN(C)C1(CNC(=O)c2ccc(Br)cc2)CCCCC1", "inhibition": "inactive: -1.34%"},
      {"smiles": "COc1cc(C(=O)NCC2(N(C)C)CCCCC2)c([N+](=O)[O-])cc1OC", "inhibition": "inactive: -5.57%"},
      {"smiles": "COc1ccc(Br)c(C(=O)NCC2(N3CCCCC3)CCCCC2)c1", "inhibition": "inactive: -6.3%"},
      {"smiles": "CC(C)Oc1ccc(C(=O)NCC2(N(C)C)CCCCC2)cc1", "inhibition": "inactive: 0.53%"},
      {"smiles": "CN(C)c1cccc(C(=O)NCC2(N(C)C)CCCCC2)c1", "inhibition": "inactive: 6.24%"},
      {"smiles": "O=C(OC1CN2CCC1CC2)C(CO)(c1ccccc1)c1ccccc1", "note": "(centres undefined)", "inhibition": "inactive: 8.51%"},
      {"smiles": "CCN(CC)CC(C)C(C)OC(=O)C(O)(c1ccccc1)c1ccccc1", "note": "(centres undefined)", "inhibition": "inactive: 4.7%"},
      {"smiles": "COc1cc(SC)ccc1C(=O)NCC1(N(C)C)CCCCC1", "inhibition": "inactive: -0.03%"},
      {"smiles": "CC(C)N1C(=O)CC2(CCN(CCOC(=O)C(O)(c3ccccc3)c3ccccc3)CC2)C1=O", "inhibition": "inactive: 2.1%"},
      {"smiles": "Cc1ccc(C(=O)NCC2(N3CCCCC3)CCCCC2)cc1", "inhibition": "inactive: -7.91%"},
      {"smiles": "O=C(NCC1(N2CCCCC2)CCCCC1)c1cc([N+](=O)[O-])ccc1Cl", "inhibition": "inactive: 9.41%"},
      {"smiles": "CN1[C@@H]2CC[C@H]1CC(OC(=O)C(O)(c1ccccc1)c1ccccc1)C2", "note": "(some centres undefined)", "inhibition": "inactive: 0.69%"},
      {"smiles": "C=CCN1CCN(CCOC(=O)C(O)(c2ccccc2)c2ccccc2)CC1", "inhibition": "inactive: 7.22%"},
      {"smiles": "O=C(NCC1(N2CCCCC2)CCCCC1)c1cc(F)c(F)cc1Cl", "inhibition": "inactive: -7.05%"},
      {"smiles": "COc1ccc(C(=O)NCC2(N(C)C)CCCCC2)cc1", "inhibition": "inactive: -4.41%"},
      {"smiles": "Cc1cc(C(=O)NCC2(N3CCCCC3)CCCCC2)ccc1[N+](=O)[O-]", "inhibition": "inactive: 5.24%"},
      {"smiles": "CCN1CCCC(OC(=O)C2(O)c3ccccc3C=Cc3ccccc32)C1", "note": "(centres undefined)", "inhibition": "inactive: 24.1%"},
      {"smiles": "O=C(NCC1(N2CCCCC2)CCCCC1)c1cccc(Br)c1", "inhibition": "inactive: 4.56%"},
      {"smiles": "Cc1ccccc1C(=O)NCC1(N2CCCCC2)CCCCC1", "inhibition": "inactive: -4.89%"},
      {"smiles": "CN(C)C1CCCC1OC(=O)C(O)(c1ccccc1)c1ccccc1", "note": "(centres undefined)", "inhibition": "inactive: -0.72%"},
      {"smiles": "CN(C)c1ccc(C(=O)NCC2(N(C)C)CCCCC2)cc1", "inhibition": "inactive: -5.64%"}
    ]}
  ]
}
